Source: patent publication US20240002434A1, “METHODS OF INACTIVATING VIRAL CONTAMINANTS” (ICHNOS SCIENCES SA, priority 2017, published 2024)

Chains of the proteins cited; added tags and fusions are not shown. Residues count along the entry.
UniProt P07766, 23-48 limits assumed: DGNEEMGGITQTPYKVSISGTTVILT

How the values were obtained:
hsCD38 = hsCD38 (Homo sapiens, UniProt P28907); experiment: Binding affinity assay of BEAT®2 to CD38
Procedure: (§1) Two antigens targets were tested, the CD38 and CD3.
(§2) Some samples of the ones described above, were selected to be tested by surface plasmon resonance (Table 37). […] In addition, cell based functional assay were also performed to directly verify the impact of high pH on BEAT®2 molecule activity.

hsCD3e 1-26Fc = target: T1, hsCD3e 1-26Fc (Homo sapiens, UniProt P07766); experiment: Binding affinity assay of BEAT®2 to CD3; settings: human CD3ε 1-26 Nterm
T1 construct: its targets CD3ε 1-26-Fc and CD38
Procedure: as §1, §2

B1: BEAT ®2 (protein)
chain 1: DIQMTQSPSSLSASVGDRVTITCQASQDVITSVAWYQQKPGKAPKLLIYSASYRYTGVPSRFSGSGSGTDFTFTISSLQPEDIATYYCQQHYTIPLTFGQGTKLEIKRTVAAPSVFIFPPSDEQLKSGTASVVCLLNNFYPREAKVQWKVDNALQSGNSQESVTEQDSKDSTYSLSSTLTLSKADYEKHKVYACEVTHQGLSSPVTKSFNRGEC
chain 2: QVTLKESGPTLVKPTQTLTLTCTFSGLSLSTSGKGVGWIRQPPGKALEWLAHIWWDDDKRYNPALKSRLTITKDTSKNQVVLTMTNMDPVDTATYYCARIELGRSYVMDYWGQGTLVTVSSASTKGPSVFPLAPSSKSTSGGTAALGCLVKDYFPEPVTVSWNSGALTSGVHTFPAVLQSSGLYSLSSVVTVPSSSLGTQTYICNVNHKPSNTKVDKKVEPKSCDKTHTCPPCPAPEAAGGPSVFLFPPKPKDTLMISRTPEVTCVVVDVSHEDPEVQFKWYVDGVEVHNAKTKPREEQYNSTFRVVSVLTVLHQDWLNGKEYKCKVSNKALPAPIEKTISKTKGQPREPAVYTLPPSREEMTKNQVKLVCLVTGFYPSDIAVEWESSGQPENNYYTTPPMLDSDGSFSLVSWLNVDKSRWQQGNIFSCSVMHEALHNRFTQKSLSLSPG
chain 3: EVQLVESGGGLVQPGGSLRLSCAASGFTFNTYAMNWVRQAPGKGLEWVARIRSKYNNYATYYADSVKGRFTISRDDSKNTLYLQMNSLRAEDTAVYYCVRHGNFGNSYVSYFAYWGQGTTVTVSSGGGGSGGGGSGGGGSEIVVTQSPATLSVSPGERATLSCRSSTGAVTESNYANWVQEKPGQAFRGLIGGANKRAPGVPARFSGSLSGDEATLTISSLQSEDFAVYYCALFYSNTWVFGQGTKLEIKGGGGTDKTHTCPPCPAPEAAGGPSVFLFPPKPKDTLMISRTPEVTCVVVDVSHEDPEVKFNWYVDGVEVHNAKTKPREEQYNSTYRVVSVLTVLHQDWLNGKEYKCKVSNKALPAPIEKTISKAKGQPREPEVATFPPSRDELTKNQVTLVCLVTGFYPSDIAVEWESNGQPENNYKTDPPLLESQGSFALSSRLRVDKSRWQQGNVFSCSVMHEALHNHYTQKSLSLSPG
For B1, the “Relative KD (% RS)” value (hsCD38; PA eluate) was 100 % RS, the “Relative KD (% RS)” value (hsCD38; high pH t0) was 104 % RS and the “Relative KD (% RS)” value (hsCD38; high pH t1) was 113 % RS. The “Relative KD (% RS)” value (hsCD38; high pH t2) was 100 % RS, the Kd (hsCD3e 1-26Fc; PA eluate) was 42.2 nM and the “Relative KD (% RS)” value (hsCD3e 1-26Fc; PA eluate) was 100 % RS. The Kd (hsCD3e 1-26Fc; high pH t0) was 28.5 nM, the “Relative KD (% RS)” value (hsCD3e 1-26Fc; high pH t0) was 68 % RS and the Kd (hsCD3e 1-26Fc; high pH t1) was 39.1 nM. The “Relative KD (% RS)” value (hsCD3e 1-26Fc; high pH t1) was 93 % RS, the Kd (hsCD3e 1-26Fc; high pH t2) was 41.1 nM and the “Relative KD (% RS)” value (hsCD3e 1-26Fc; high pH t2) was 97 % RS.
